The source of these data is PubChem BioAssay AID488928 (Johns Hopkins Ion Channel Center, 2010).

The entries are a selection whose mix differs from that of the whole data set. Some results for these compounds are left out of this collection, so the calls shown say nothing about other tests. Active and inactive are the calls of the source.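 How the source made its calls: active means drop in membrane potential signal beyond 5 SD of the control wells in both duplicate plates; inactive means the rest.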

The subject of this assay is TRPC4 (transient receptor potential cation channel C4), mouse. As to the kind of experiment: TRPC4 inhibition by TRPC6 hit compounds, confirmation, selectivity assay for TRPC6 modulator project, cell-based, second screen, HEK293 TRPC4/mu-opioid, membrane potential dye (AID 488928).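 Further: TRPC4 counter screen for TRPC6 hits run under conditions tuned for TRPC6 not TRPC4.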 The following applies: membrane potential dye fluorescence, at 10 µM, stimulated with maximal-effect DAMGO.
On to `CCN(CC)CC(C)C(C)OC(=O)C(O)(c1ccccc1)c1ccccc1` (configuration not stated), for which the call was inactive. On to `CN1[C@@H]2CC[C@H]1CC(OC(=O)C(O)(c1ccccc1)c1ccccc1)C2` (some centres not stated), for which the result was inactive.
